OPERA 2.9 data: melting point values

Values as listed in the OPERA 2.9 repository of K. Mansouri.

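The numbers are reported measurements, compiled and curated for the OPERA QSAR suite. A listed value is a point estimate from one report or more. Method and conditions are not stated for these values. Where a salt, mixture or single isomer is drawn, the source does not say that exactly this form was tested. Unmarked limits or estimates from the upstream databases cannot be ruled out.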

The melting point is given in degrees Celsius.
"via" names the databases from which the curators took the value.

compound	MP (°C)	via
COc1ccccc1-c1n[nH]c(=S)n1N	215	OCHEM
Nc1nc2ccccc2n1N	260	OCHEM
NNC(=O)c1ccc2c(c1)OCCO2	143	OCHEM
CCOC(=O)c1c(C)[nH]c(C(=O)CCl)c1C	189	OCHEM
Cc1cccc(CC(N)=S)c1	76	OCHEM
CC(C)n1c(=S)[nH]c2ccccc21	139	OCHEM
CCCc1ccc(C(=O)CCl)cc1	31	OCHEM
FC(F)(F)C(F)(F)C(F)(F)C(F)(F)C(F)(F)C(F)(F)C(F)(F)C(F)(F)C(F)(F)C(F)(F)CC1CO1 (stereo not given)	61.5	ChemicalBook
O=[N+]([O-])c1cc(C(F)(F)F)ccc1I	35	OCHEM
O=C(O)CCNC(=O)c1ccco1	137	OCHEM
O=C(O)Cc1cc(=O)n(-c2ccccc2)[nH]1	100	OCHEM
COc1cc(C=O)ccc1OCC(N)=O	156	OCHEM
O=C(CCl)NC(=O)NC1CCCCC1	104	OCHEM
O=C1COc2ccc(C(=O)O)cc2N1	229	OCHEM
Cn1cc(S(=O)(=O)Cl)c(=O)n(C)c1=O	208	OCHEM
O=c1c(Cl)c(Cl)cnn1-c1ccc(S(=O)(=O)Cl)cc1	145	OCHEM
Nc1cc(-c2ccccc2)nn1CCO	143	OCHEM
Cc1ccc(C(=O)C(Cl)c2ccc(C)cc2)cc1 (stereo not given)	68	OCHEM
O=C(O)c1cccc(N2C(=O)C=CC2=O)c1	232	OCHEM
O=C(O)Cn1c(=O)cnc2ccccc21	197	OCHEM
CCOc1ccc(C#N)cn1	98	OCHEM
Cc1ccc(S(N)(=O)=O)cc1N	177	OCHEM
Nc1cccc(Cl)c1N1CCOCC1	155	OCHEM
O=C(O)c1cnc2sccn2c1=O	270	OCHEM
Cc1ccc(NC(=O)/C=N/O)cc1	146	OCHEM
O=C(O)c1cccc(S(=O)(=O)N2CCCC2)c1	158	OCHEM
CC(=O)Nc1cc(N)c(S(=O)(=O)[O-])cc1/N=N/c1cccc(S(=O)(=O)CCOS(=O)(=O)[O-])c1.[Na+].[Na+]	155	eChemPortal
[NH-]S(=O)(=O)c1ncccc1OCC(F)(F)F.[Na+]	248.6	eChemPortal
O=C(CBr)c1ccc(S(=O)(=O)N2CCCCC2)cc1	109	OCHEM
NS(=O)(=O)c1cccnc1Cl	184	OCHEM

The 3 highest values of MP among the entries above:

| compound | MP (°C) | via |
|---|---|---|
| O=C(O)c1cnc2sccn2c1=O | 270 | OCHEM |
| Nc1nc2ccccc2n1N | 260 | OCHEM |
| [NH-]S(=O)(=O)c1ncccc1OCC(F)(F)F.[Na+] | 248.6 | eChemPortal |